# Laboratory results: patent publication US20200069772A1, “METHODS OF TREATING EARLY RHEUMATOID ARTHRITIS” (BRISTOL-MYERS SQUIBB COMPANY, priority 2014, published 2020)
# Legend:
# [1] = test system: patients with early RA; assay: AVERT phase 3b randomized active-controlled trial: signs and symptoms (DAS-defined remission, other remission and ACR measures); format: in vivo, human
# Excerpt: Assessing Very Early Rheumatoid Arthritis Treatment (AVERT) was a phase 3b, randomized, active-controlled trial of 24 months, with a 12-month, double-blind treatment period.
# The study population included adults (≥18 years old) with active clinical synovitis of ≥2 joints for ≥8 weeks, with persistent symptoms for ≤2 years; Disease Activity Score (DAS)28 (C-reactive protein [CRP])≥3.2 and anti-citrullinated peptide (CCP)-2 antibody positivity. […] Patients receiving oral corticosteroids were required to be on a stable dose (≤10 mg/day for ≥4 weeks) at initiation and to maintain that dose until Month 12.
# SC abatacept was administered at 125 mg/week. […] All patients received concomitant folic acid therapy.
# Patients with DAS28 (CRP)≥3.2 were discontinued.
# For the purpose of this study, DAS-defined remission was DAS28 (CRP)<2.6.
# Exploratory endpoints included: Other remission rates (Simplified Disease Activity Index [SDAI; ≤3.3], Clinical Disease Activity Index [CDAI; ≤2.8] and Boolean remission [28-joint tender joint count ≤1 and 28-joint swollen joint count ≤1 and patient global assessment of disease activity [0-10 cm]≤1 and high-sensitivity CRP≤1 mg/dL]), American College of Rheumatology (ACR) responses and Major Clinical Response (ACR 70 response for 6 months at any time period) in each arm.
# Co-primary endpoints were tested in hierarchical fashion. […] All patients who discontinued prior to completing the treatment or withdrawal period were imputed as non-responders for the Month 12 or 18 analyses.
# Endpoints of Disease Activity Score (DAS)-defined remission, SDAI remission, CDAI remission, Boolean remission, ACR 20/50/70 response and Major Clinical Response over time were summarized using descriptive statistics (with 95% confidence intervals at each time point). Missing remission data not due to premature discontinuation and not at Day 1 of the treatment period or at Day 169 of the withdrawal period was imputed as a remission if the missing value occurred between two observed remissions. Missing ACR response data not due to premature discontinuation and not at Day 1 of the treatment period or at Day 169 of the withdrawal period was imputed as an ACR response if the missing value occurred between two observed ACR responses.
# For each treatment arm, a post hoc analysis was performed of mean baseline characteristics for patients who achieved DAS-defined remission at only Month 12 and at both Months 12 and 18, and of the proportions of patients who achieved DAS-defined remission based on these characteristics. An analysis of the overall treatment effect in mean change from baseline in DAS28 (CRP) (including data up to Month 12 of the treatment period) was performed for each treatment arm. Overall treatment effect and treatment differences between the three arms were obtained using a longitudinal repeated measures model including fixed categorical effects of treatment, months, and prior corticosteroid use as well as the continuous fixed covariate of baseline value. An unstructured covariance matrix was used to represent the correlation of the repeated measures within each subject.
# [2] = test system: patients with early RA; assay: AVERT trial: HAQ-DI response (≥0.3 points reduction from baseline); format: in vivo, human
# [3] = test system: patients with early RA; assay: AVERT trial: contrast MRI of wrist and hand (synovitis, osteitis, erosion score); format: in vivo, human; details: at 12 months; FIG. 7A-C
# Protocol: All patients underwent contrast magnetic resonance imaging (MRI) of the wrist and hand of the major affected upper limb at baseline and at 6, 12, 18 and 24 months.
# Adjusted mean MRI change from baseline and standard error was calculated for all arms using a longitudinal repeated measures model. Safety assessments were based on the intent-to-treat population (patients who received≥1 dose of study medication). Analysis of other secondary endpoints is described in the supplementary information.
# [4] = in vivo; cited from earlier work
# [5] = treatment period, compared subgroups not stated
substance,measurement,setting,value
abatacept [Abatacept monotherapy],"other remission endpoints (SDAI, CDAI, Boolean), ACR responses and major clinical response versus MTX over time",[1]; FIG. 4A-D and FIG. 5A-E,numerically higher
same,proportion of patients in DAS-defined remission (DAS28 [CRP]<2.6) at Month 12,"[1]; Month 12 of treatment period, patients with baseline DAS28 (CRP), discontinuations imputed as non-responders",42.5%
same,proportion of patients in DAS-defined remission (DAS28 [CRP]<2.6) at both Months 12 and 18,"[1]; after withdrawal of all RA therapy at Month 12, only patients with DAS28 (CRP) available at baseline",12.4%
same,patients remaining in DAS-defined remission at Month 18,[1]; of the patients who entered the withdrawal period in DAS-defined remission at Month 12,28%
same,Proportion of Patients with DAS-defined Remission (DAS28 [CRP] < 2.6) at Both Months 12 and 18,[1]; post hoc subgroup: baseline DAS28 (CRP) >Median (5.4),2/57 (3.5) %
same,Proportion of Patients with DAS-defined Remission (DAS28 [CRP] < 2.6) at Both Months 12 and 18,[1]; post hoc subgroup: baseline DAS28 (CRP) Missing,0/3 (0) %
same,Proportion of Patients with DAS-defined Remission (DAS28 [CRP] < 2.6) at Both Months 12 and 18,[1]; post hoc subgroup: baseline DAS28 (CRP) ≤Median (5.4),12/56 (21.4) %
same,Proportion of Patients with DAS-defined Remission (DAS28 [CRP] < 2.6) at Both Months 12 and 18,[1]; post hoc subgroup: baseline Erosion >Median (4.5),4/44 (9.1) %
same,Proportion of Patients with DAS-defined Remission (DAS28 [CRP] < 2.6) at Both Months 12 and 18,[1]; post hoc subgroup: baseline Erosion >Q1 (1.5)-Q2 (4.5),5/30 (16.7) %
same,Proportion of Patients with DAS-defined Remission (DAS28 [CRP] < 2.6) at Both Months 12 and 18,[1]; post hoc subgroup: baseline Erosion >Q2 (4.5)-Q3 (8.5),3/23 (13.0) %
same,Proportion of Patients with DAS-defined Remission (DAS28 [CRP] < 2.6) at Both Months 12 and 18,[1]; post hoc subgroup: baseline Erosion >Q3 (8.5),1/21 (4.8) %
same,Proportion of Patients with DAS-defined Remission (DAS28 [CRP] < 2.6) at Both Months 12 and 18,[1]; post hoc subgroup: baseline Erosion Missing,0/14 (0) %
same,Proportion of Patients with DAS-defined Remission (DAS28 [CRP] < 2.6) at Both Months 12 and 18,[1]; post hoc subgroup: baseline Erosion ≤Median (4.5),10/58 (17.2) %
same,Proportion of Patients with DAS-defined Remission (DAS28 [CRP] < 2.6) at Both Months 12 and 18,[1]; post hoc subgroup: baseline Erosion ≤Q1 (1.5),5/28 (17.9) %
same,Proportion of Patients with DAS-defined Remission (DAS28 [CRP] < 2.6) at Both Months 12 and 18,[1]; post hoc subgroup: baseline HAQ-DI >Median (1.375),3/54 (5.6) %
same,Proportion of Patients with DAS-defined Remission (DAS28 [CRP] < 2.6) at Both Months 12 and 18,[1]; post hoc subgroup: baseline HAQ-DI Missing,1/3 (33.3) %
same,Proportion of Patients with DAS-defined Remission (DAS28 [CRP] < 2.6) at Both Months 12 and 18,[1]; post hoc subgroup: baseline HAQ-DI ≤Median (1.375),10/59 (16.9) %
same,Proportion of Patients with DAS-defined Remission (DAS28 [CRP] < 2.6) at Both Months 12 and 18,[1]; post hoc subgroup: baseline Osteitis >Median (0.5),4/55 (7.3) %
same,Proportion of Patients with DAS-defined Remission (DAS28 [CRP] < 2.6) at Both Months 12 and 18,[1]; post hoc subgroup: baseline Osteitis >Q1 (0)-Q2 (0.5),1/4 (25.0) %
same,Proportion of Patients with DAS-defined Remission (DAS28 [CRP] < 2.6) at Both Months 12 and 18,[1]; post hoc subgroup: baseline Osteitis >Q2 (0.5)-Q3 (5),2/27 (7.4) %
same,Proportion of Patients with DAS-defined Remission (DAS28 [CRP] < 2.6) at Both Months 12 and 18,[1]; post hoc subgroup: baseline Osteitis >Q3 (5),2/28 (7.1) %
same,Proportion of Patients with DAS-defined Remission (DAS28 [CRP] < 2.6) at Both Months 12 and 18,[1]; post hoc subgroup: baseline Osteitis Missing,0/14 (0) %
same,Proportion of Patients with DAS-defined Remission (DAS28 [CRP] < 2.6) at Both Months 12 and 18,[1]; post hoc subgroup: baseline Osteitis ≤Median (0.5),10/47 (21.3) %
same,Proportion of Patients with DAS-defined Remission (DAS28 [CRP] < 2.6) at Both Months 12 and 18,[1]; post hoc subgroup: baseline Osteitis ≤Q1 (0),9/43 (20.9) %
same,Proportion of Patients with DAS-defined Remission (DAS28 [CRP] < 2.6) at Both Months 12 and 18,[1]; post hoc subgroup: baseline Pain (100 mm VAS) >Median (62),5/55 (9.1) %
same,Proportion of Patients with DAS-defined Remission (DAS28 [CRP] < 2.6) at Both Months 12 and 18,[1]; post hoc subgroup: baseline Pain (100 mm VAS) Missing,1/3 (33.3) %
same,Proportion of Patients with DAS-defined Remission (DAS28 [CRP] < 2.6) at Both Months 12 and 18,[1]; post hoc subgroup: baseline Pain (100 mm VAS) ≤Median (62),8/58 (13.8) %
same,Proportion of Patients with DAS-defined Remission (DAS28 [CRP] < 2.6) at Both Months 12 and 18,[1]; post hoc subgroup: baseline Synovitis >Median (4.5),5/50 (10.0) %
same,Proportion of Patients with DAS-defined Remission (DAS28 [CRP] < 2.6) at Both Months 12 and 18,[1]; post hoc subgroup: baseline Synovitis >Q1 (2)-Q2 (4.5),5/28 (17.9) %
same,Proportion of Patients with DAS-defined Remission (DAS28 [CRP] < 2.6) at Both Months 12 and 18,[1]; post hoc subgroup: baseline Synovitis >Q2 (4.5)-Q3 (8.5),4/33 (12.1) %
same,Proportion of Patients with DAS-defined Remission (DAS28 [CRP] < 2.6) at Both Months 12 and 18,[1]; post hoc subgroup: baseline Synovitis >Q3 (8.5),1/17 (5.9) %
same,Proportion of Patients with DAS-defined Remission (DAS28 [CRP] < 2.6) at Both Months 12 and 18,[1]; post hoc subgroup: baseline Synovitis Missing,0/14 (0) %
same,Proportion of Patients with DAS-defined Remission (DAS28 [CRP] < 2.6) at Both Months 12 and 18,[1]; post hoc subgroup: baseline Synovitis ≤Median (4.5),9/52 (17.3) %
same,Proportion of Patients with DAS-defined Remission (DAS28 [CRP] < 2.6) at Both Months 12 and 18,[1]; post hoc subgroup: baseline Synovitis ≤Q1 (2),4/24 (16.7) %
same,Proportion of Patients with DAS-defined Remission (DAS28 [CRP] < 2.6) at Both Months 12 and 18,[1]; post hoc subgroup: symptom duration >6 Months,3/45 (6.7) %
same,Proportion of Patients with DAS-defined Remission (DAS28 [CRP] < 2.6) at Both Months 12 and 18,[1]; post hoc subgroup: symptom duration >Median (0.37 years),7/66 (10.6) %
same,Proportion of Patients with DAS-defined Remission (DAS28 [CRP] < 2.6) at Both Months 12 and 18,[1]; post hoc subgroup: symptom duration ≤6 Months,11/71 (15.5) %
same,Proportion of Patients with DAS-defined Remission (DAS28 [CRP] < 2.6) at Both Months 12 and 18,[1]; post hoc subgroup: symptom duration ≤Median (0.37 years),7/50 (14.0) %
same,estimated treatment difference (95% CI) versus MTX in change from baseline in DAS28 (CRP),"[1]; post hoc, overall treatment effect over the 12 months of the treatment period","-0.26 (−0.11, −0.48)"
same,DAS-defined remission rates versus MTX over time,"[1]; treatment period, FIG. 4A, from Day 57 (abatacept plus MTX), at most other time points (monotherapy)",numerically higher
same,time with DAS28 (CRP) <2.6 during the treatment period (first value of 'x vs y'),[1]; [5],8.9 months
same,time with DAS28 (CRP) <2.6 during the treatment period (second value of 'x vs y'),[1]; [5],6.6 months
same,"HAQ-DI Response (≥0.3), proportion of patients",[2]; Month 12,61 (52.6) %
same,"HAQ-DI Response (≥0.3), proportion of patients",[2]; Month 18,19 (16.4) %
same,"decreases from baseline in synovitis and osteitis scores by MRI, compared with MTX",[3],numerically greater decreases
same,half-life,[4],14.3 days
